Reference: patent US20040102442A1, “Remedies for alzheimer's disease” (priority 2000, published 2004)

Biological target: T1, Human type-X sPLA2 (Homo sapiens, UniProt O15496)
T1 construct: made in house; host or cells: CHO cells, stably transfected with a pSVL expression vector; culture supernatant used as the enzyme source
T1 sequence (O15496 43-165): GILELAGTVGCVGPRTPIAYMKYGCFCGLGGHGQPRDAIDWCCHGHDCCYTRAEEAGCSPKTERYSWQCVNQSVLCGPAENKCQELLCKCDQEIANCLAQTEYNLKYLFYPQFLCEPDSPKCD
Assay: type-X sPLA2 inhibition test (chromogenic assay, diheptanoylthio PC)
Assay type: biochemical
Conditions: diheptanoylthio PC 1 mM, Triton X-100 0.3 mM, 30 min at 40° C., absorbance at 405 nm
Excerpt: cDNA sequence encoding human type-X sPLA2 (Cupillard et al., J. Biol. Chem, 1997, 272, 15745-15752) was inserted into the downstream region of the promoter of pSVL SV40 Late Promoter Expression Vector (Amersham Pharmacia Biotech Inc.) that is an expression vector for mammalian cells. The obtained expression vector was transfected into the host CHO cells with a LipofectAMINE reagent (Gibco BRL Inc.) according to the manufacture's instruction to obtain the CHO cells stably expressing human type-X sPLA2. The transfected cell was cultured in A-MEM medium containing 10% fetal calf serum for 3 days and its culture supernatant was used for the measurement of each enzyme activity.
In order to identify and evaluate an inhibitor of type-X sPLA2, the following chromogenic assay is utilized. […] A general explanation for this assay is described in “Analysis of Human Synovial Fluid Phospholipase A2 on Short Chain Phosphatidylcholine-Mixed Micelles: Development of a Spectrophotometric Assay Suitable for a Micortiterplate Reader” (Analytical Biochemistry, 204, pp 190-197, 1992 by Laure. J. Reynolds. Lori L. Hughes and Edward A. Dennis.
Test compounds (or solvent blank) were added according to the alignment of plates that had been previously set. […] The changes in the absorbance at 405 nm were measured and the inhibition activities were calculated. […]

With `CCc1c(C(=O)C(N)=O)c2c(OCC(=O)O)cccc2n1Cc1ccccc1` [Compound 17] the IC50 was 12 nM.
